Measured values taken from US8436019B2, “Sulfonyl-piperidin-4-yl methylamine amide analogs as GlyT1 inhibitors, methods for making same, and use of same in treating psychiatric disorders” (Vanderbilt University, priority 2009, dated 2013).

Target: T1, GlyT1 (Homo sapiens, UniProt P48067)
T1 construct: Human placental choriocarcinoma cells endogenously expressing GlyT1; endogenous in cells; host or cells: JAR cells (human placental choriocarcinoma)
T1 sequence (P48067 1-706): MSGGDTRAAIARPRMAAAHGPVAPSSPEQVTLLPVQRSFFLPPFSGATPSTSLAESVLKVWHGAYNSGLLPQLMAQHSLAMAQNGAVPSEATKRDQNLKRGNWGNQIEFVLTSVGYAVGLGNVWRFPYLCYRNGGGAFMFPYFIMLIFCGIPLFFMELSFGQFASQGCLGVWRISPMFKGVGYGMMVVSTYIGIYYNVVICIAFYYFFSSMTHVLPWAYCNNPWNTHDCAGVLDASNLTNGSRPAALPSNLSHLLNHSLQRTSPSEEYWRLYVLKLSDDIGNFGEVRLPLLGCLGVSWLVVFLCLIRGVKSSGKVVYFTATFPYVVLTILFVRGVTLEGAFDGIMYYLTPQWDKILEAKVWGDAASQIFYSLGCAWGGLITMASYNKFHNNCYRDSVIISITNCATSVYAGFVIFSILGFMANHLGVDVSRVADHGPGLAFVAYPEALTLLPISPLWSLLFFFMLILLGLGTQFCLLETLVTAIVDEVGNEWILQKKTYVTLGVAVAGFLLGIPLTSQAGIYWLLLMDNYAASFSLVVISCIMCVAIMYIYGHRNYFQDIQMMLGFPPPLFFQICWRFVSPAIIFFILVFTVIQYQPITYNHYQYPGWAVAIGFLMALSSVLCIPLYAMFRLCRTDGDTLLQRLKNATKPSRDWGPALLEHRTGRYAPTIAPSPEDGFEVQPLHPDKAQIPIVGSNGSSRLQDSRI
Experiment: [14C]-glycine uptake inhibition in JAR cells (human placental choriocarcinoma cells endogenously expressing GlyT1)
Assay type: cell-based
Conditions: inhibition of specific [14C]-glycine uptake; values in nM; read-out: Potency
Experimental: Human placental choriocarcinoma cells endogenously expressing GlyT1 can be cultured using standard conditions. Cells can then be grown at 37° C. in a humidified atmosphere 40-48 hours before the assay. Culture medium can be removed from the culture plate, and cells can be incubated with an amount of TB1A buffer with or without the compounds of the present invention for a sufficient period of time. Then an amount of [^14C]-glycine diluted with TB1A can be added to each well. After incubation the microplates can be sealed and counted. Non-specific uptake of [^14C]-glycine can be determined in the presence of unlabeled glycine. To determine potencies, a range of concentrations of the compounds of the present invention can be added to the cells, followed by the fixed concentration of [^14C]-glycine. The concentration of the present compound that inhibited half of the specific uptake of [^14C]glycine (IC50 value) can be determined from the assay data by non-linear curve fitting.

- IC50: 374 nM
Structure (SMILES): Cn1cnc(S(=O)(=O)N2CCC(C(NC(=O)c3ccc(Cl)cc3Cl)c3cccs3)CC2)c1 (stereo not shown) [Compound 9c]
